Results taken from patent US8391959B2, “Composition for improving efficiency of drug delivery” (Tel HaShomer Medical Research Infrastructure and Services …, priority 2004, dated 2013).

Test system: striatum of normal Sprague-Dawley (SD) rats
Assay: Cytotoxic tissue response after CED in rat striatum, T2-weighted and diffusion-weighted MRI 24 hours post treatment
Conditions: efficient prolonged (90 minutes) CED, at the site of the catheter tip
Description: The resultant solution was infused into the striatum of normal Sprague-Dawley (SD) rats (males, 250-300 grams). T1-weighted MR images were acquired immediately post treatment to assess the extent of convection. Additionally, T2-weighted and diffusion-weighted MR images were acquired 24 hours post treatment to assess the response of the tissue and its correlation to the extent of convection.
In order to obtain a wide range in volumes of distribution, the infusion times were varied between 17 to 60 minutes. 13 rats were treated with Carboplatin (4 mg/ml, 17 minutes infusion). In order to obtain a wide range in volumes of distributions, in 6 out of those, the composition viscosity was increased by adding sucrose to the solution prior to infusion (Carboplatin 4 mg/ml, sucrose concentration-12%).
Early assessment of tissue response was performed using diffusion-weighted and T2-weighted MR images. The diffusion-weighted images were obtained by acquiring conventional T2-weighted images with the addition of diffusion-weighting gradients that filter out the signal from high mobility water molecules and sensitize the MR images to molecular diffusion/mobility [Stejskal et al. supra]. […]

human serum albumin: non-toxic infusate (human serum albumin solutions 0.2%, 1.0% and 2.5%)
enhancement on T2-weighted and diffusion-weighted MR images: minor enhancement
